In assay [1] the target is T1, Cholecystokinin receptor type A (Homo sapiens, UniProt P32238).
In assay [2] the target is T1, Cholecystokinin receptor type A. This is another data set of the same source.

Protein sequences, listed by entry. Tags and fused reporters are not part of them.
UniProt P32238, whole entry L356H: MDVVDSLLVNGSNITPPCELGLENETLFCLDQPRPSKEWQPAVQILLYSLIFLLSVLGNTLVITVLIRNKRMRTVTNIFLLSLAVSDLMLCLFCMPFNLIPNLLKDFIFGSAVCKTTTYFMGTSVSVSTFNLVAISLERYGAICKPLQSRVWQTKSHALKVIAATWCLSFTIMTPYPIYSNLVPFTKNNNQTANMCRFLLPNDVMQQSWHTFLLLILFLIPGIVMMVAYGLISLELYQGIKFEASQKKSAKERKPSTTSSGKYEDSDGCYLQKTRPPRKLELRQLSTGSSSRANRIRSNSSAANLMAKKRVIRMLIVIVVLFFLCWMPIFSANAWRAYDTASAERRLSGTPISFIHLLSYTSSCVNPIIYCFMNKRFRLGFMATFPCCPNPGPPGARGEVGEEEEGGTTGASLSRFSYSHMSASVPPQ

Structures are written as SMILES.

Consider `O=C(CN1C(=O)C(NC(=O)Nc2ccccc2)C(=O)N(c2ccccc2)c2ccccc21)Nc1ccccc1` (configuration not stated), for which the IC50 – broadly, the concentration at which inhibition is half-maximal – turned out to be 12 nM in assay [1] and 6.3 nM in assay [2].

(Values after BindingDB's records for doi:10.1016/j.bmcl.2015.03.051 (Mayo Clinic, 2015).)
